# In patent US6384208B1, “Sequence directed DNA binding molecules compositions and methods” (Genelabs Technologies, Inc., priority 1991, dated 2002):
# Tested on: 256 different 4 bp sequences flanking the UL9 recognition site
# Conditions: 10 μM distamycin for 30 minutes
substance,measurement,setting,value
Distamycin A,"Rank of test oligonucleotide (1 to 256, by average rank in 4 experiments)",test sequence AAAC,18
same,"Rank of test oligonucleotide (1 to 256, by average rank in 4 experiments)",test sequence AAAG,13
same,"Rank of test oligonucleotide (1 to 256, by average rank in 4 experiments)",test sequence AACC,14
same,"Rank of test oligonucleotide (1 to 256, by average rank in 4 experiments)",test sequence AACG,5
same,"Rank of test oligonucleotide (1 to 256, by average rank in 4 experiments)",test sequence AAGC,74
same,"Rank of test oligonucleotide (1 to 256, by average rank in 4 experiments)",test sequence AAGG,20
same,"Rank of test oligonucleotide (1 to 256, by average rank in 4 experiments)",test sequence AATC,44
same,"Rank of test oligonucleotide (1 to 256, by average rank in 4 experiments)",test sequence ACAC,48
same,"Rank of test oligonucleotide (1 to 256, by average rank in 4 experiments)",test sequence ACAG,73
same,"Rank of test oligonucleotide (1 to 256, by average rank in 4 experiments)",test sequence ACCC,26
same,"Rank of test oligonucleotide (1 to 256, by average rank in 4 experiments)",test sequence ACCG,32
same,"Rank of test oligonucleotide (1 to 256, by average rank in 4 experiments)",test sequence ACGC,25
same,"Rank of test oligonucleotide (1 to 256, by average rank in 4 experiments)",test sequence ACGG,8
same,"Rank of test oligonucleotide (1 to 256, by average rank in 4 experiments)",test sequence AGAC,17
same,"Rank of test oligonucleotide (1 to 256, by average rank in 4 experiments)",test sequence AGAG,46
same,"Rank of test oligonucleotide (1 to 256, by average rank in 4 experiments)",test sequence AGCC,22
same,"Rank of test oligonucleotide (1 to 256, by average rank in 4 experiments)",test sequence AGCG,21
same,"Rank of test oligonucleotide (1 to 256, by average rank in 4 experiments)",test sequence AGGC,30
same,"Rank of test oligonucleotide (1 to 256, by average rank in 4 experiments)",test sequence AGGG,28
same,"Rank of test oligonucleotide (1 to 256, by average rank in 4 experiments)",test sequence AGTC,35
same,"Rank of test oligonucleotide (1 to 256, by average rank in 4 experiments)",test sequence AGTG,49
same,"Rank of test oligonucleotide (1 to 256, by average rank in 4 experiments)",test sequence ATCC,19
same,"Rank of test oligonucleotide (1 to 256, by average rank in 4 experiments)",test sequence ATCG,39
same,"Rank of test oligonucleotide (1 to 256, by average rank in 4 experiments)",test sequence CAAC,16
same,"Rank of test oligonucleotide (1 to 256, by average rank in 4 experiments)",test sequence CGAA (complement of TTCG),216
same,"Rank of test oligonucleotide (1 to 256, by average rank in 4 experiments)",test sequence CGTT (complement of AACG),144
same,"Rank of test oligonucleotide (1 to 256, by average rank in 4 experiments)",test sequence CTCG,38
same,"Rank of test oligonucleotide (1 to 256, by average rank in 4 experiments)",test sequence GAAA (complement of TTTC),235
same,"Rank of test oligonucleotide (1 to 256, by average rank in 4 experiments)",test sequence GATA (complement of TATC),213
same,"Rank of test oligonucleotide (1 to 256, by average rank in 4 experiments)",test sequence GGAA (complement of TTCC),42
same,"Rank of test oligonucleotide (1 to 256, by average rank in 4 experiments)",test sequence GGTA (complement of TACC),185
same,"Rank of test oligonucleotide (1 to 256, by average rank in 4 experiments)",test sequence GTAA (complement of TTAC),244
same,"Rank of test oligonucleotide (1 to 256, by average rank in 4 experiments)",test sequence TAAC,12
same,"Rank of test oligonucleotide (1 to 256, by average rank in 4 experiments)",test sequence TAAG,23
same,"Rank of test oligonucleotide (1 to 256, by average rank in 4 experiments)",test sequence TACC,3
same,"Rank of test oligonucleotide (1 to 256, by average rank in 4 experiments)",test sequence TACG,15
same,"Rank of test oligonucleotide (1 to 256, by average rank in 4 experiments)",test sequence TAGC,9
same,"Rank of test oligonucleotide (1 to 256, by average rank in 4 experiments)",test sequence TAGG,58
same,"Rank of test oligonucleotide (1 to 256, by average rank in 4 experiments)",test sequence TATC,4
same,"Rank of test oligonucleotide (1 to 256, by average rank in 4 experiments)",test sequence TATG,31
same,"Rank of test oligonucleotide (1 to 256, by average rank in 4 experiments)",test sequence TCAC,52
same,"Rank of test oligonucleotide (1 to 256, by average rank in 4 experiments)",test sequence TCCC,29
same,"Rank of test oligonucleotide (1 to 256, by average rank in 4 experiments)",test sequence TCGG,34
same,"Rank of test oligonucleotide (1 to 256, by average rank in 4 experiments)",test sequence TTAA,47
same,"Rank of test oligonucleotide (1 to 256, by average rank in 4 experiments)",test sequence TTAC,2
same,"Rank of test oligonucleotide (1 to 256, by average rank in 4 experiments)",test sequence TTAG,10
same,"Rank of test oligonucleotide (1 to 256, by average rank in 4 experiments)",test sequence TTCG,6
same,"Rank of test oligonucleotide (1 to 256, by average rank in 4 experiments)",test sequence TTCT,24
same,"Rank of test oligonucleotide (1 to 256, by average rank in 4 experiments)",test sequence TTGC,37
same,"Rank of test oligonucleotide (1 to 256, by average rank in 4 experiments)",test sequence TTGG,11
same,"Rank of test oligonucleotide (1 to 256, by average rank in 4 experiments)",test sequence TTTG,43

# Where two headings read alike, the source gives them in different places.
